Measured values as given in ChEMBL document CHEMBL4265983, “Discovery and biological evaluation of thiobarbituric derivatives as potent p300/CBP inhibitors” (Bioorg Med Chem, 2018).

Biological target: T1, Histone acetyltransferase KAT8 (Homo sapiens, UniProt Q9H7Z6)
T1 sequence (Q9H7Z6 whole entry): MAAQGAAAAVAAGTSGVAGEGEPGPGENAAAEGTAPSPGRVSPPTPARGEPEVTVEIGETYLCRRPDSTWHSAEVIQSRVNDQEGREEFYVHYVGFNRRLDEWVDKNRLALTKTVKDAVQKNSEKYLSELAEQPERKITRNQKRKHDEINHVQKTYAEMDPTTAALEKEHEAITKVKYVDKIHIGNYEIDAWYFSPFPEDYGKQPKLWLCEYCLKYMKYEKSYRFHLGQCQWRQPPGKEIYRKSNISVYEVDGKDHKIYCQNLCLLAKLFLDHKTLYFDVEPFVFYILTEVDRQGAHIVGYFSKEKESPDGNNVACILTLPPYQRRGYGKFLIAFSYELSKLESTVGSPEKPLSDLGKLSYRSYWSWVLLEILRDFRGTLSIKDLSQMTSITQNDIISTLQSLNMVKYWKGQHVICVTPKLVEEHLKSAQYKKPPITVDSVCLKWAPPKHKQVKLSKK
Assay: Inhibition of MOF (unknown origin)

IC50: 43 µM
Structure (SMILES): CCCCCCCCCCCCCCCc1cccc(O)c1C(=O)O [ANACARDIC ACID]
